PMC4775937, “Combination Effects of Antimicrobial Peptides” (Antimicrobial Agents and Chemotherapy, 2016)
In brackets after ≈: the same amount, converted by molar mass.

Tested on: Escherichia coli MG1655
Type: cell-based
Conditions: E. coli MG1655; MH broth, 96-well plates, 2-fold gradient 0.25 to 128 μg/ml; approx. 5 × 10^5 log-phase bacteria per well; 37°C overnight
Protocol: Escherichia coli MG1655 was grown in Luria-Bertani (LB) broth at 37°C with aeration at 220 rpm in 50-ml tubes. Two hundred microliters of overnight culture was resuspended into 15 ml fresh LB broth, cultured under the same conditions for an additional 2 h, and then used for subsequent assays. Mueller-Hinton (MH) broth was used for the assay of MICs and time-killing curves.
According to a standard protocol ([35]), stock solutions of AMPs were diluted in MH broth and then diluted in 96-well plates with a 2-fold gradient, that is, from 0.25 μg/ml to 128 μg/ml. All the gradients of antibiotics were from 0.02 μg/ml to 50 μg/ml, except that the gradient of ciprofloxacin was from 0.002 μg/ml to 1 μg/ml. Approximately 5 × 10^5 log-phase bacteria were added to each well. A positive control containing MH broth and bacteria and a negative control containing only MH broth were included in each plate, and plates were incubated at 37°C overnight.

`CC[C@H](C)[C@H](NC(=O)CN)C(=O)NCC(=O)N[C@@H](C)C(=O)N[C@H](C(=O)N[C@@H](CC(C)C)C(=O)N[C@@H](CCCCN)C(=O)N[C@H](C(=O)N[C@@H](CC(C)C)C(=O)N[C@H](C(=O)N[C@H](C(=O)NCC(=O)N[C@@H](CC(C)C)C(=O)N1CCC[C@H]1C(=O)N[C@@H](C)C(=O)N[C@@H](CC(C)C)C(=O)N[C@H](C(=O)N[C@@H](CO)C(=O)N[C@@H](Cc1c[nH]c2ccccc12)C(=O)N[C@H](C(=O)N[C@@H](CCCCN)C(=O)N[C@@H](CCCNC(=N)N)C(=O)N[C@@H](CCCCN)C(=O)N[C@@H](CCCNC(=N)N)C(=O)N[C@@H](CCC(N)=O)C(=O)N[C@@H](CCC(N)=O)C(N)=O)[C@@H](C)CC)[C@@H](C)CC)[C@@H](C)O)[C@@H](C)O)C(C)C)C(C)C` [Mel, melittin] showed an MIC of 4 µg/mL (≈ 1.41 µM).
